# Binding of CDR-mutated scFvs to a peptide of the spike HR2 region

Values reported by Engelhart et al. 2022, doi:10.1038/s41597-022-01779-4 (FLAb copy).

The target is the same throughout: PDVDLGDISGINAS, from the HR2 region of SARS-CoV-2 spike.

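Phage display of a naive human antibody library on the peptide gave the parent. Variants in AAYL51 differ from the parent at up to three CDR positions; double and triple changes were sampled at random. The assay is AlphaSeq: two haploid yeast populations carry antibody and antigen on their surface. Binding brings cells together so that they mate, and sequencing counts the barcode pairs among the diploids. Read counts were normalised to the haploid input and turned into Kd by a linear fit to BCL2-family pairs of known affinity, for each replicate. The assay was run in three technical replicates.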

Parent scFv Ab-91: VL joined to VH by a (GGGGS)3 linker. Changes lie in the heavy chain CDRs alone.
VL: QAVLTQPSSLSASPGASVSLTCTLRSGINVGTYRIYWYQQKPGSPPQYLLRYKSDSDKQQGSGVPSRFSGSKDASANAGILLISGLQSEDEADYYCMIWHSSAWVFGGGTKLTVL
VH: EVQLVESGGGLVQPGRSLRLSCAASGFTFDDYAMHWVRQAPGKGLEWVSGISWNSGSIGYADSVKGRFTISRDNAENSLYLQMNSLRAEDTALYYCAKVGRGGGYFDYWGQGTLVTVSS

Sequences are complete VH domains. Numbers give log10(Kd / nM), so 0 is 1 nM and 3 is 1 µM. Smaller is tighter. A pair that was not seen in that replicate is written "nd"; this usually means weak binding, but a binder can also be missed. For reference, the parent read 1.86 as the reference entry and 0.88 as a member of this library. Empty control strains, which show no peptide, gave a signal in 21% of pairings with library AAYL51; the median was 4.54 and 95% of these signals were weaker than 3.26. No background was subtracted. Also given: how often the same scFv was detected with the empty control strains, with their mean in brackets.

VH	log10 Kd (nM) by replicate	signal with controls
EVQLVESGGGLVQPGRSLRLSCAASGFTFDDYAHHWVRQAPGKGLEWVSGISWDSGSIGYADSVKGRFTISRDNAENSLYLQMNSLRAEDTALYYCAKVGRGHGYFDYWGQGTLVTVSS	4.00 1.97 nd	0/9
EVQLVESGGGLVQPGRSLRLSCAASGPTFDDYAMHWVRQAPGKGLEWVSGISWNSGSIGYADSVKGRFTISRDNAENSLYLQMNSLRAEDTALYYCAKVGRGGGYFDDWGQGTLVTVSS	nd nd nd	0/9
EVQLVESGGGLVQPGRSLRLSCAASGFTFDDYAMHWVRQAPGKGLEWVSGISWNSCSIGYLDSVKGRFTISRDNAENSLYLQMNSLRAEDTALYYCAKVGRGGGYFDYWGQGTLVTVSS	5.32 6.88 nd	4/9 (4.36)
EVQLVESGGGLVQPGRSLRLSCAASGFTHDDYAMHWVRQAPGKGLEWVSGISWNSYSIGYADSVKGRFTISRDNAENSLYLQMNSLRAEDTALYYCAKVGSGGGYFDYWGQGTLVTVSS	4.33 4.42 4.67	8/9 (5.14)
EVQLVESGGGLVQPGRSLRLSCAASGFKFDDYAAHWVRQAPGKGLEWVSGISWNSGSIGYADSVKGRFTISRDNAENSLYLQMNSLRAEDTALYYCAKVGRPGGYFDYWGQGTLVTVSS	nd nd nd	3/9 (4.58)
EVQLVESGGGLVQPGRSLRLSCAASGFTFDEIAMHWVRQAPGKGLEWVSGISWNSGSIGYADSVKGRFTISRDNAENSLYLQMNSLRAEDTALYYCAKVGRGNGYFDYWGQGTLVTVSS	4.31 nd nd	6/9 (4.33)
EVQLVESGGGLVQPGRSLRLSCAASGFTFDDYAMHWVRQAPGKGLEWVSGISWNSGSIGYADKVKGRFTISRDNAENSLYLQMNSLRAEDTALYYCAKVGRGGGYFDYWGQGTLVTVSS	nd nd nd	0/9
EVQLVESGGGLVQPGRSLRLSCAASGFTFDDYAMHWVRQAPGKGLEWVSGIGWNSGSIGYADSVKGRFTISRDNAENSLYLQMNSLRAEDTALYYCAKVGRGGGYLDQWGQGTLVTVSS	2.10 2.15 2.32	1/9 (4.70)
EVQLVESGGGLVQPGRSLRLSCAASKFTFDDYAMHWVRQAPGKGLEWVSGISWNSGSIGYADPVKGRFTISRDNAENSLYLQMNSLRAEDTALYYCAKVGRGGQYFDYWGQGTLVTVSS	nd nd nd	1/9 (4.41)
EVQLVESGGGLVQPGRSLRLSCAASGFTFDDYAMHWVRQAPGKGLEWVSGISWNSGSIGYADRDKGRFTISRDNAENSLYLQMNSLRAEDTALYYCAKVGRGGGYEDYWGQGTLVTVSS	1.84 2.28 1.34	1/9 (2.99)
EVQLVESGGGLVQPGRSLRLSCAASGFTFDDYAMHWVRQAPGKGLEWVSGQSWNSGSIGYADSVKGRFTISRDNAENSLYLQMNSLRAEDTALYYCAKDGRGGGEFDYWGQGTLVTVSS	4.67 4.89 5.59	6/9 (4.74)
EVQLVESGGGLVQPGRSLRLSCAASGFTFDDYAMHWVRQAPGKGLEWVSGISWNSGPINYADSVKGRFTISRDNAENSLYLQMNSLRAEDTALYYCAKVGFGGGYFDYWGQGTLVTVSS	nd nd nd	1/9 (4.37)
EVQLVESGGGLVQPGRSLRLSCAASGFTFDDNAMHWVRQAPGKGLEWVSGIWWNSGSIIYADSVKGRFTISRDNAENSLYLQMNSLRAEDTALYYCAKVGRGGGYFDYWGQGTLVTVSS	4.64 nd nd	1/9 (2.56)
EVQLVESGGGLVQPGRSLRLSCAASGFTFDDYAMHWVRQAPGKGLEWVSGISCNSGSIGAADSVKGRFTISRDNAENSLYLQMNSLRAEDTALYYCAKVGRGGGYFRYWGQGTLVTVSS	nd nd nd	0/9
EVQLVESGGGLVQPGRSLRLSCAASGVTFDDYAMHWVRQAPGKGLEWVSGISANSGSIGYADSIKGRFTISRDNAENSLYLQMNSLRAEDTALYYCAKVGRGGGYFDYWGQGTLVTVSS	0.59 2.20 0.18	0/9
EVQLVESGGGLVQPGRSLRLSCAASGMTFDDYAMHWVRQAPGKGLEWVSGISWNSGSIGYADSVKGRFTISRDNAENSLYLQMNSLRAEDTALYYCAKVGRGGAYFDKWGQGTLVTVSS	5.24 6.47 5.64	4/9 (4.01)
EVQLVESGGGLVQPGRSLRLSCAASGFTFDDYAMHWVRQAPGKGLEWVSGISWYSGSIGYADSVKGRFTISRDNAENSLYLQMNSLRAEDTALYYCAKVGRIGEYFDYWGQGTLVTVSS	4.89 4.34 nd	5/9 (4.63)